Target: wild type HCV NS3 serine protease domain, genotype 1a (Hepatitis C virus genotype 1a, UniProt P27958)
Assay type: biochemical

By UniProt entry, the sequences of proteins in these tests, tags left out. Residues count along the entry.
UniProt P27958, 1027-1208: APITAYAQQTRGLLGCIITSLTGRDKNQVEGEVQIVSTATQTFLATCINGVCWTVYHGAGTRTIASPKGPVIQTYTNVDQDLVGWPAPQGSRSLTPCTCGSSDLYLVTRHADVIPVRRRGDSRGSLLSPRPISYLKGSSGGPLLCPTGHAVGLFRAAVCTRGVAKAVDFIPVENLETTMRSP

BILN 2061
Ki: 6 nM

From patent publication US7884199B2, “HCV NS3-NS4 protease resistance mutants” (priority 2003, dated 2011)
